Compound activity deposited in PubChem BioAssay by Broad Institute.
Casp6 inh: human caspase-6 inhibitors, primary screen, biochemical, VEID-R110 fluorescence, single point, set 2; purified caspase-6, Z-VEID-R110 cleavage fluorescence; inhibition, % at 12.5 µM; actives 0.53% (n = 350,000); AID 686996, 2013;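 active = mean inhibition across replicates at least about 35%, with every replicate also reaching that limit, limit read from the data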;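 also: 0% = median of neutral control wells and 100% = no fluorescence left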
RAD52 anneal inh: RAD52 DNA annealing inhibitors, primary screen, biochemical, FRET, single point, set 2. DNA repair protein RAD52 homolog (Homo sapiens), P43351. recombinant RAD52 DNA annealing, FRET fluorescence. inhibition, % at 18.7 µM. actives 0.46% (n = 360,000). AID 651710, 2012;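 active = every replicate showing at least 50% inhibition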
RAD54 inh: inhibitors of human RAD54 branch migration, primary screen, biochemical, fluorescence, single point; DNA repair and recombination protein RAD54-like (Homo sapiens), Q92698; RAD54 Holliday junction branch migration, FAM/BHQ fluorescence; inhibition, % at 10.4 µM; actives 0.14% (n = 360,000); AID 602329, 2012;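 active = mean normalized replicate activity at least 40 and at least half of replicates scoring 40 or more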;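 also: 0% = median of neutral control wells and 100% = median of positive control wells; inhibitors cause a drop in the FAM fluorescence signal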
PglD DTNB: C. jejuni PglD acetyltransferase inhibitors, primary screen, biochemical, DTNB colorimetric, single point. inhibition, % at 12.5 µM. purified PglD enzyme, DTNB colorimetric CoA detection. actives 0.098% (n = 360,000); in the data active = inhibition above about 16%, passing the limit was not always enough
UUG fidelity: yeast start codon fidelity modulation; activity score, % at 18.7 µM; actives 0.13% (n = 350,000); S. cerevisiae UUG-firefly luciferase reporter, luminescence/redox ratio; AID 602363;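 active means replicate mean at a twofold rise or more, about +100% in these data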;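 further: firefly luciferase made from a UUG start codon reports start codon fidelity; reporter light over untreated wells divided by growth signal over untreated wells; some hits fall short of that in this replicate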
INS-1E GSIS act: GLuc luminescence reporter in INS-1E cells, primary screen for activators of glucose-dependent secretion of insulin | INS-1E GLuc reporter insulin secretion, 2-3 h | activation, % at 16.6 µM | actives 0.61% (n = 370,000) | AID 743287, 2014;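 active = lowest replicate activation of at least 40%, so every replicate reaches that level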;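 also: 0% = median of neutral control wells and 100% = median of IBMX positive control wells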
PglD confirm: PglD acetyltransferase inhibitors, confirmation, biochemical, DTNB absorbance, single point, cherry-picked samples; shares compounds with PglD DTNB; 320 tested, under 10 active; inhibition, % at 20 µM; Purified C. jejuni PglD, DTNB absorbance 412 nm; AID 743156, 2013;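 active = mean inhibition across replicates of at least 20% with every single replicate also at 20% or more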;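 also: initial rate of CoA release by acetyl transfer from AcCoA to the UDP-4-amino sugar; 0% = median of neutral control wells and 100% = median of positive control wells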
Active calls of the source: *. Shown are actives, neighbours in structure and some others; about 1.5% of the full set was active somewhere.

`COc1ccc(-n2c(-c3ccc(Cl)cc3Cl)n[nH]c2=S)c(OC)c1` gave Casp6 inh 0.0, RAD52 anneal inh -11.0, RAD54 inh 1.5, PglD DTNB 5.1, UUG fidelity -5.6 and INS-1E GSIS act 0.8.
`CNC[C@H]1Oc2ncc(C#CCC3CCCC3)cc2C(=O)N([C@@H](C)CO)C[C@H]1C` gave Casp6 inh -2.9, RAD52 anneal inh -25.2, RAD54 inh 1.2, PglD DTNB -0.7, UUG fidelity 5.0 and INS-1E GSIS act -5.5.
For Cc1ccc2cc(C3CC(c4ccco4)=NN3C(=O)CCCC(=O)O)c(Cl)nc2c1 (configuration not stated) the results were Casp6 inh 6.6, RAD52 anneal inh -1.4, RAD54 inh 1.2, PglD DTNB 34.2*, UUG fidelity -24.7, INS-1E GSIS act -4.1 and PglD confirm 1.7.
Screening Cc1cccc2cc(C3CC(c4ccco4)=NN3C(=O)CCC(=O)O)c(Cl)nc12 (configuration not stated) returned Casp6 inh 21.9, RAD52 anneal inh 0.0, RAD54 inh 5.8, PglD DTNB 23.4*, UUG fidelity -10.9, INS-1E GSIS act 9.5 and PglD confirm -5.9.
COC(=O)c1ccc(COc2ccc(C)cc2[N+](=O)[O-])o1 was read as Casp6 inh -0.8, RAD52 anneal inh -11.3, RAD54 inh 4.8, PglD DTNB -1.9, UUG fidelity -8.3 and INS-1E GSIS act 4.0.
For COC(=O)c1cc(C)ccc1OCc1ccc([N+](=O)[O-])cc1 the results were Casp6 inh 0.8, RAD52 anneal inh -1.2, RAD54 inh 2.3, PglD DTNB 22.8*, UUG fidelity -0.4 and PglD confirm -2.9.
For O=C(CN(C(=O)CNC(=O)c1cccs1)c1ccc(F)cc1)NC1CCCCC1 the results were Casp6 inh 1.1, RAD52 anneal inh -25.8, RAD54 inh 13.5, PglD DTNB 25.2*, UUG fidelity 9.5, INS-1E GSIS act -6.8 and PglD confirm 0.0.
`O=C(CN(C(=O)CNC(=O)c1cccs1)c1ccc(F)cc1)NC1CCCC1` gave Casp6 inh -0.7, RAD52 anneal inh -3.6, RAD54 inh -12.1, PglD DTNB 2.6, UUG fidelity -4.3 and INS-1E GSIS act 2.8.
For CCC(OC(=O)c1ccco1)C(=O)NCc1ccc2c(c1)OCO2 (configuration not stated) the results were Casp6 inh 1.0, RAD52 anneal inh -1.3, RAD54 inh -2.8, PglD DTNB 22.2*, UUG fidelity -2.2, INS-1E GSIS act 6.0 and PglD confirm 3.3.
Screening O=c1oc2ccccc2cc1-c1ccccc1 returned Casp6 inh 1.1, RAD52 anneal inh 10.0, RAD54 inh -0.4, PglD DTNB 23.6*, UUG fidelity -20.4, INS-1E GSIS act 0.0 and PglD confirm -8.8.
Screening Cn1c(CC(=O)Nc2ccccc2Cl)nnc1SCC(=O)Nc1nncs1 returned Casp6 inh -0.4, RAD52 anneal inh -10.0, RAD54 inh -1.2, PglD DTNB 25.7*, UUG fidelity -11.4, INS-1E GSIS act 1.2 and PglD confirm 12.6.
Screening CC(C)Oc1cc(F)ccc1-c1cc(C(=O)NCC2CCCCC2)[nH]n1 returned Casp6 inh -1.3, RAD52 anneal inh -10.5, RAD54 inh 3.7, PglD DTNB 22.5*, UUG fidelity -9.0, INS-1E GSIS act -14.0 and PglD confirm 11.6.
Cc1cc(F)ccc1-c1cc(C(=O)NCC2CCCCC2)[nH]n1 was read as Casp6 inh 0.1, RAD52 anneal inh 1.6, RAD54 inh 0.5, PglD DTNB 5.3, UUG fidelity -12.1 and INS-1E GSIS act -13.4.
Screening Cc1ccc(NC(=O)N2CCCC2C(=O)Nc2ccc(-n3cnnn3)c(C)c2)cc1 (configuration not stated) returned RAD54 inh -3.5, PglD DTNB 7.0, UUG fidelity -20.3 and INS-1E GSIS act 7.6.
Screening CCOc1ccccc1NC(=O)N1CCCC1C(=O)Nc1ccc(-n2cnnn2)c(C)c1 (configuration not stated) returned RAD54 inh 5.6, PglD DTNB 25.3*, UUG fidelity 4.9 and PglD confirm 1.3.

Three records drawn at random from those above:
COC(=O)c1ccc(COc2ccc(C)cc2[N+](=O)[O-])o1 was read as Casp6 inh -0.8, RAD52 anneal inh -11.3, RAD54 inh 4.8, PglD DTNB -1.9, UUG fidelity -8.3 and INS-1E GSIS act 4.0.
Screening O=c1oc2ccccc2cc1-c1ccccc1 returned Casp6 inh 1.1, RAD52 anneal inh 10.0, RAD54 inh -0.4, PglD DTNB 23.6*, UUG fidelity -20.4, INS-1E GSIS act 0.0 and PglD confirm -8.8.
Cc1cc(F)ccc1-c1cc(C(=O)NCC2CCCCC2)[nH]n1 was read as Casp6 inh 0.1, RAD52 anneal inh 1.6, RAD54 inh 0.5, PglD DTNB 5.3, UUG fidelity -12.1 and INS-1E GSIS act -13.4.

Continuation.
Cn1nnc2cc(NC(=O)Nc3ccccc3F)ccc21 was read as Casp6 inh 0.2, RAD52 anneal inh 0.8, RAD54 inh 4.6, PglD DTNB 0.9, UUG fidelity -28.0 and INS-1E GSIS act -1.5.
`Cc1cc(NC(=O)Nc2ccccc2F)ccc1Br` gave Casp6 inh -1.3, RAD52 anneal inh -1.4, RAD54 inh -5.3, PglD DTNB 40.2*, UUG fidelity -13.2, INS-1E GSIS act 3.2 and PglD confirm -1.4.
`CC1=NN(c2ccc(C)cc2C)C(=O)C1C(c1cccc(O)c1)C1C(=O)N(c2ccc(C)cc2C)N=C1C` (configuration not stated) gave RAD54 inh 4.8, PglD DTNB 11.0, UUG fidelity -18.0 and INS-1E GSIS act -19.7.
Screening CCOC(=O)c1sc(N(Cc2ccccc2)C(=O)CSc2ncn[nH]2)nc1C returned RAD54 inh 6.3, PglD DTNB 21.5*, UUG fidelity -13.7 and PglD confirm 0.0.
`CCOC(=O)c1sc(N(Cc2ccccc2)C(=O)COC(=O)c2ccccc2O)nc1C` gave Casp6 inh 4.4 and RAD52 anneal inh -5.4.
`COc1ccc(C)cc1S(=O)(=O)N(C)CC(=O)Nc1ccccc1` gave RAD54 inh -0.4, PglD DTNB -2.3 and UUG fidelity -11.4.
NC(=O)CCCc1nc(-c2ccccc2Cl)no1 was read as RAD54 inh 7.2, PglD DTNB -1.8, UUG fidelity -19.6 and INS-1E GSIS act -9.4.
Screening CNC(=O)CCCc1nc(-c2ccccc2Cl)no1 returned Casp6 inh 1.5, RAD52 anneal inh 1.3, RAD54 inh 7.9, PglD DTNB 24.4*, UUG fidelity -16.8, INS-1E GSIS act -14.5 and PglD confirm -6.0.
Cc1nc([N+](=O)[O-])c(SCC(N)=O)n1Cc1ccccc1 was read as Casp6 inh 2.7, RAD52 anneal inh 5.6 and INS-1E GSIS act 21.1.
Cc1nc([N+](=O)[O-])c(Sc2nc3ccccc3n2C)n1Cc1ccccc1 was read as Casp6 inh 8.6, RAD52 anneal inh -16.4, RAD54 inh 2.5, PglD DTNB 29.9*, UUG fidelity -21.2, INS-1E GSIS act 1.4 and PglD confirm 7.1.
`CC(=O)C1=C(c2ccc(Br)cc2)C(=O)c2ccccc2C1=O` gave RAD54 inh 0.9, PglD DTNB 0.6, UUG fidelity -30.7 and INS-1E GSIS act -34.6.
